Reference: patent US6855807B1 (priority 1999, dated 2005)

Chains of the proteins cited; added tags and fusions are not shown.
UniProt P42866, whole entry: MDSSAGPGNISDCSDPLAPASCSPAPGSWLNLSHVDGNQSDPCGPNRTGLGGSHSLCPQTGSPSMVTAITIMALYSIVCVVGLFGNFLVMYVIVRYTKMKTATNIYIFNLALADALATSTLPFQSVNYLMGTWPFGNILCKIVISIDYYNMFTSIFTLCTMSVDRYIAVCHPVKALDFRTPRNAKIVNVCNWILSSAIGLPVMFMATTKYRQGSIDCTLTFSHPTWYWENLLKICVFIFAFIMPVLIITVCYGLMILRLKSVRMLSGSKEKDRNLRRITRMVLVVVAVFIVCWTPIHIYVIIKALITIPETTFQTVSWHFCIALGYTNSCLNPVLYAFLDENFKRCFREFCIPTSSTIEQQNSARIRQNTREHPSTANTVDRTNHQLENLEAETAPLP
UniProt P32300, whole entry: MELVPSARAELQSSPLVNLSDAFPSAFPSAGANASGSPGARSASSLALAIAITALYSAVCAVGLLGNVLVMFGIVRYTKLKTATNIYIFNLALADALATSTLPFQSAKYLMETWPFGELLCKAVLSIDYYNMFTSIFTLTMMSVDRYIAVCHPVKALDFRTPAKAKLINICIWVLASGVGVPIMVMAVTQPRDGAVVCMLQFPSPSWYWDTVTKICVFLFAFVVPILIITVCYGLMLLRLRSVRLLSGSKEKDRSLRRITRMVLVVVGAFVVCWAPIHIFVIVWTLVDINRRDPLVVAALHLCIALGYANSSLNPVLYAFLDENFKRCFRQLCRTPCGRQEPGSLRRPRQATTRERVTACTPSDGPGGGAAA

Columns and labels:
mu receptors [1] = biological target: T1, mu receptors (Mus musculus, UniProt P42866); assay: Whole cell 3H-DAMGO binding, cells expressing mu receptors alone; conditions: cells expressing only mu receptors
T1 construct: FLAG; expressed in transfected cells; host or cells: CHO

mu and delta receptors = biological target: T2, mu and delta receptors (Mus musculus, UniProt P32300+P42866); assay: Whole cell 3H-DAMGO binding, cells exogenously co-expressing mu and delta receptors; conditions: delta subtype selective agonist present
T2 construct: FLAG; myc; expressed in transfected cells; host or cells: CHO

mu receptors [2] = biological target: T1, mu receptors; assay type: binding
mu-delta heterodimers = mu-delta heterodimers (Mus musculus, UniProt P32300+P42866)

| Substance | increase in 3H-DAMGO binding sites (mu receptors [1]) | increase in the population of receptors binding 3H-DAMGO (mu and delta receptors) | super high affinity site (mu receptors [2]) | competition for [3H]-diprenorphine (in words) (mu-delta heterodimers) |
| --- | --- | --- | --- | --- |
| deltorphin II | not seen | increase in the population of receptors |  |  |
| CTOP |  |  | not seen | additional super high affinity; also recorded: single binding site; also recorded: second super high affinity binding site |

“Also recorded” adds a separate entry of the source.
